Biological target: T1, Bile acid receptor (Homo sapiens, UniProt Q96RI1)
T1 sequence (Q96RI1 whole entry): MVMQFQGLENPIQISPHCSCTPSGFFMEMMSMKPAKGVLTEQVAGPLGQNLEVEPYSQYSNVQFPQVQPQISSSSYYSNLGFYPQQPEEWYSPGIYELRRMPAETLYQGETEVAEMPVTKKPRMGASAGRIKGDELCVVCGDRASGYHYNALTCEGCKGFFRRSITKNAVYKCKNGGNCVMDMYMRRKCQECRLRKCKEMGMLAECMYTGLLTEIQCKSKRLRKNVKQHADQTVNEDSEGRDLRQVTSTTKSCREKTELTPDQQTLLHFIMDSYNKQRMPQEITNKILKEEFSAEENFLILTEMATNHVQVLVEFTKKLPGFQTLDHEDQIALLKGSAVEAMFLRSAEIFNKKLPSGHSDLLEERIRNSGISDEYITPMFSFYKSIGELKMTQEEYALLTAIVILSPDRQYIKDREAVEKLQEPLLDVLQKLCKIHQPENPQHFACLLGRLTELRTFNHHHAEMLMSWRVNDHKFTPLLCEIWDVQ
Assay: Displacement of radioligand from human FXR by scintillation proximity assay

IC50: 0.07 µM
Compound: O=C(NC1CCCCC1)C(C1CCCCC1)n1c(-c2ccc(Cl)cc2)nc2ccccc21 (stereo unspecified)

From ChEMBL document CHEMBL1641585, “Discovery of novel and orally active FXR agonists for the potential treatment of dyslipidemia & diabetes” (Bioorg Med Chem Lett, 2011)
